Measured values as given in ChEMBL document CHEMBL1137970, “N,N-Dialkylated 4-(4-arylsulfonylpiperazine-1-carbonyl)-benzamidines and 4-((4-arylsulfonyl)-2-oxo-piperazin-1-ylmethyl)-benzamidines as potent factor Xa inhibitors” (Bioorg Med Chem Lett, 2004).

Protein sequences, listed by entry. Tags and fused reporters are not part of them. Residues count along the entry.
UniProt P07477, whole entry: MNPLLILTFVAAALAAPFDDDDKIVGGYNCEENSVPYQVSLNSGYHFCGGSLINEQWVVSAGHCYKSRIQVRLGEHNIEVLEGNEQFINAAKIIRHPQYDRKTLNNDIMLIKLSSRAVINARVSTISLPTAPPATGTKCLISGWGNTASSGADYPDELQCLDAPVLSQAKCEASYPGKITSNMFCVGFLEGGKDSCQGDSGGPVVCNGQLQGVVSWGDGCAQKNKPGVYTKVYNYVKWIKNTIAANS
UniProt P04070, 43-197 limits assumed: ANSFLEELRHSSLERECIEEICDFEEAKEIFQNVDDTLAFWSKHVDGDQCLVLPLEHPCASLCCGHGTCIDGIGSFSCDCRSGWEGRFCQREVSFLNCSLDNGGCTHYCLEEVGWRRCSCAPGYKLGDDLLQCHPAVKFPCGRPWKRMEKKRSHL
UniProt P04070, 212-461 limits assumed: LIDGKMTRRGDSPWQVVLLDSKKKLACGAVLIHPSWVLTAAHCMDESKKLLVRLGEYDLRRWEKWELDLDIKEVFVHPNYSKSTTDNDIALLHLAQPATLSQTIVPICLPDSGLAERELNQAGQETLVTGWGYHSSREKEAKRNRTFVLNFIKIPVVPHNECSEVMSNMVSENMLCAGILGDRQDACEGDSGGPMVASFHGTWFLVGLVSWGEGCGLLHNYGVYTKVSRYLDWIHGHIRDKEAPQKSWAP
UniProt P00742, 41-179 limits assumed: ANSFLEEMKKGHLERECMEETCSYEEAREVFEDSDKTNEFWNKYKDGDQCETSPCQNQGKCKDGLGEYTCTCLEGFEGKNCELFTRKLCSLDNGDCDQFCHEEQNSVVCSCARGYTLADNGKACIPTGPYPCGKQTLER
UniProt P00742, 235-488 limits assumed: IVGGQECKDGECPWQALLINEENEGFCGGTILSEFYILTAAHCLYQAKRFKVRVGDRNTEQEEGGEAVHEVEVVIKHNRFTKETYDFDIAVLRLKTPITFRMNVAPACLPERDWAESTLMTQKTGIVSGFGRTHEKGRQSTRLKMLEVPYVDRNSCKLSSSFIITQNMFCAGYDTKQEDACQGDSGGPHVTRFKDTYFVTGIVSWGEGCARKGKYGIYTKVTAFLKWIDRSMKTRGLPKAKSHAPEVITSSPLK

Columns and labels:
Serine protease 1 = Serine protease 1 (Homo sapiens, UniProt P07477); experiment: In vitro inhibitory activity against trypsin was determined
[1] = target: Vitamin K-dependent protein C (Homo sapiens, UniProt P04070); experiment: In vitro inhibitory activity against activated protein C was determined
Coagulation factor X = Coagulation factor X (Homo sapiens, UniProt P00742); experiment: In vitro inhibitory activity against Coagulation factor X was determined

| SMILES | IC50 (Serine protease 1) [µM] | IC50 [1] [µM] | IC50 (Coagulation factor X) [µM] |
| --- | --- | --- | --- |
| CN1CCN=C1c1ccc(C(=O)N2CCN(S(=O)(=O)c3cc4cc(Cl)ccc4[nH]3)CC2)cc1 | > 10 | > 10 |  |
| NS(=O)(=O)c1ccccc1-c1ccc(C(=O)N2CCN(S(=O)(=O)c3ccc4cc(Br)ccc4c3)CC2)cc1 |  |  | 0.24 |
